Measured values reported in patent US20240299303A1, “NANOSTRUCTURE OR MICROSTRUCTURE AND METHOD FOR PRODUCING SAME” (The University of Tokyo, priority 2021, published 2024).

Assays:
[1] = Introduction of molecules into porous nanosheet crosslinked body (UV-visible, supernatant); assay type: physicochemical; conditions: adsorption from aqueous dispersion; Example 9
[2] = Introduction of molecules into crosslinked body of porous microstructural body (UV-visible, supernatant); assay type: physicochemical; conditions: adsorption from aqueous dispersion; Example 10
Description: A low-molecular weight compound was added, and caused to adsorb, to the aqueous dispersion of the porous γ-PPG4k-Plate crosslinked body, and then the porous γ-PPG4k-Plate crosslinked body was sedimented by centrifugation. The concentration of the low-molecular weight compound present in the supernatant liquid obtained at that time was determined by a UV-visible spectral method. Thus, the amount of the low-molecular weight compound adsorbing to the porous γ-PPG4k-Plate crosslinked body was determined. The ratio of the weight of the low-molecular weight compound to the total sum of the weights of the low-molecular weight compound and the porous γ-PPG4k-Plate crosslinked body was as follows: 0.7 wt % in the case of catechin; 0.6 wt % in the case of coumarin; and 0.9 wt % in the case of linoleic acid.

For catechin, the “ratio of the weight of the low-molecular weight compound to the total sum of the weights of the compound and the porous γ-plu108-NS crosslinked body” value [1] was 0.6 wt % and the “ratio of the weight of the low-molecular weight compound to the total sum of the weights of the compound and the porous γ-PPG4k-Plate crosslinked body” value [2] was 0.7 wt %.
